# Screens as filed in PubChem BioAssay.
# miR-21 reporter = raises the signal of a miR-21 reporter | HeLa miR-21 FLuc reporter, luciferase, 48 h | Potency, µM (highest dose often 38.3 µM), inactives show at the highest dose reporter change, positive = more light | 340,000 tested, under 10 active | AID 2288; active = well fitted rising curve with a large enough effect; inconclusive = small, poorly fitted or top-dose-only effect; inactive = no such curve, though single readings can be large or run the other way;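 note: % of control where 0% means no effect; miR-21 action dims this reporter so a rising signal means less miR-21 action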
#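 HeLa miR-21-FLuc reporter line, endogenous miR-21; 2000 cells/well in DMEM/10% FBS; compound titration up to ~40uM final, 48 h, 37 degree Celsius; luciferase detection reagent, 15 min lysis, CCD luminescence.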
# Lamin A splicing = changes lamin A minigene splicing in HeLa cells | HeLa LMNA splicing GFP/RFP minigene ratio, 48 h | Potency, µM (top dose mostly 46.1 µM), inactives show at the highest dose ratio change, negative = inhibition, hits mostly inhibitors | 200,000 compounds, 0.01% hits; active means well fitted inhibition curve with a large enough effect in the signal ratio, with a control signal flat, not every such curve was filed as active; inconclusive means small, poorly fitted or top-dose-only effect, or effect the other way, or a change in a side signal; the % refers to the signal ratio; further: potency means the concentration at half of the fitted maximal effect; on the % scale 0 is the no-effect control and ±100 the full control effect
#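 S3 HeLa cells stably expressing lamin A-EGFP splicing minigene plus DsRed2, 600 cells/well, 48 h compound exposure at 37C. Laser-scanning cytometry; analysed as GFP (500-530 nm)/RFP (575-640 nm) total intensity ratio; 0.5% DMSO vehicle.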
# ALDH1A1 inh = ALDH1A1 (human) enzyme inhibition | P00352 | Potency, µM (titrated, usually from 75.3 µM), without a hit: at the top dose activity, negative = inhibition, most hits filed as inhibitors | Purified ALDH1A1, NADH fluorescence, propionaldehyde substrate | AID 1030 | 220,000 compounds, 7.3% hits; active means well fitted inhibition curve with a large enough effect, not every such curve was filed as active; inconclusive means small, poorly fitted or top-dose-only effect, or another doubt; inactive means no such curve, though single readings can be large or run the other way;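 further: potency means the concentration at half of the fitted maximal effect; plate controls were no enzyme wells and a reference inhibitor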
# KDM4E inh = blocks human JMJD2E demethylase activity. 230,000 compounds, 1.6% hits. JMJD2E catalytic domain, FDH-coupled NADH fluorescence (FDH is formaldehyde dehydrogenase). Potency, µM (doses to about 57.1 µM), for inactives: top-dose activity change, negative = inhibition, actives largely listed as inhibitors. B2RXH2; active means well fitted inhibition curve with a large enough effect, not every such curve was filed as active; inconclusive means small, poorly fitted or top-dose-only effect, or another doubt; inactive means no such curve, though single readings can be large or run the other way;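 further: potency means the concentration at half of the fitted maximal effect; 0% = wells with enzyme and -100% = buffer wells without enzyme; nearly all actives have a fitted effect of over 50% in size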
# G9a block = blocks human histone lysine methyltransferase G9a; Q96KQ7; G9a H3K9 monomethylation, AlphaScreen, 2 h; Potency, µM (titrated, usually from 102 µM), for the others: at the highest dose activity, negative = inhibition, most hits filed as inhibitors; 350,000 compounds, 8.8% hits; AID 504332; further: potency means the concentration at half of the fitted maximal effect; on the % scale 0 is the no-effect control and ±100 the full control effect; nearly all actives have a fitted effect of over 75% in size
#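 Compounds were preincubated with 20 nM G9a for 15 min, after which biotinylated H3K9 peptide (500 nM) and SAM (20 uM) started a 2 h room-temperature reaction. Monomethylated product was quantified by antibody-based AlphaScreen chemiluminescence.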
# Sfp inh = qHTS Assay for Inhibitors of Bacillus subtilis Sfp phosphopantetheinyl transferase (PPTase). Potency, µM, inactives show max response, negative = inhibition, most hits filed as inhibitors. Biochemical Sfp PPTase activity, qHTS. AID 1490, 2009. 4'-phosphopantetheinyl transferase ffp (Bacillus subtilis), Q9F4F7. hit rate 3.5% among 310,000; active = well fitted inhibition curve with a large enough effect; inconclusive = small, poorly fitted or top-dose-only effect, or another doubt; inactive = no such curve, though single readings can be large or run the other way;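 also: the enzyme is Sfp with the accession as filed and its product quenches rhodamine fluorescence; potency is read from the fitted curve at half-maximal effect; 0% = enzyme reaction without inhibitor and -100% = no enzyme wells; top concentration of the series not given in the record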
#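 Buffer: 50 mM Hepes-Na pH 7.6, 10 mM MgCl2, 0.01% Nonidet P-40, 0.01% BSA. Enzyme 15 nM, pre-exposed to compound 15 min; substrates then added and fluorescence change tracked over 30 min.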
# * = called active by the depositor; u = inconclusive; x = no result; [ ] = remark or other dose. The list is not random: actives were taken first. Their share in the collection is about 13%. Unless noted, the call rests on the fitted dose curve; in most records, active means well fitted curve in the direction sought with a large enough effect; inconclusive means small, poorly fitted or top-dose-only effect, or another doubt; inactive means no such curve, though single readings can be large; an effect the other way counts as inactive or inconclusive.
no. | compound | miR-21 reporter | Lamin A splicing | ALDH1A1 inh
1 | CC(=O)O[C@@H]1CN2CCC1CC2 | x | x | 9%
2 | CN(C)/C=C1/C(=O)NC(=O)N(CCNc2ncc(C(F)(F)F)cc2Cl)C1=O | -3% | u | u
3 | [Cl][In]([Cl])[Cl] | x | 13% | 8%
4 | C=CCN | x | x | 19%
5 | CCC1(c2ccc(-c3ccccc3)cc2)C(=O)NC(=O)NC1=O | -9% | x | x
6 | CC1(C)OC(c2ccccc2)=C/C(=C/C=C2C(=O)NC(=O)NC2=O)O1 | 3% | u | 15%
7 | CN(C)c1ccc(P(=O)(Nc2ccc([N+](=O)[O-])cc2)N2CCOCC2)c(NC(=O)c2cccs2)c1 (stereo unspecified) | -11% | u | -6%
8 | O=C(c1cc([N+](=O)[O-])ccc1N1CCNCC1)N1CCOCC1 | -2% | -10% | u

no. | KDM4E inh | G9a block | Sfp inh
1 | 2% | x | 7%
2 | 62% | 45µM* | -12%
3 | x | 0%[59 µM] | 45µM*
4 | x | 15%[59 µM] | 8%
5 | x | 46% | -2%
6 | -5% | 35µM* | -29%
7 | -1% | 45µM* | -12%
8 | 6% | 16%[59 µM] | 7%

# The list continues.
no. | compound | miR-21 reporter | Lamin A splicing | ALDH1A1 inh
9 | CNCCc1c(C)n[nH]c1C | -3% | 14% | -8%
10 | CNCCc1nc(N)n[nH]1 | -11% | -1% | 6%
11 | CCOC(OCC)P(=O)(O)CCCN | x | x | 3%
12 | C[n+]1c2ccccc2nc2ccc(NCCO)cc21 | 25% | x | x
13 | CNc1ccc2nc3ccccc3[n+](C)c2c1 | 30% | x | x
14 | CCC(C)N1C(=O)/C(=C\c2cnc(N(C)C)nc2)C(=O)NC1=S (stereo unspecified) | 6% | 0%[46 µM] | -9%
15 | CSc1ncc(/C=C2/C(=O)NC(=O)N(C3CCCCC3)C2=O)cn1 | -3% | 12% | 4%
16 | CN(C)c1ncc(/C=C2/C(=O)NC(=S)N(C3CCCCC3)C2=O)cn1 | -1% | -9%[46 µM] | u

no. | KDM4E inh | G9a block | Sfp inh
9 | 174% | u | 14%
10 | -2% | 56µM* | -9%
11 | 1% | 35%[59 µM] | 20%
12 | x | 1%[2.33 µM] | 79µM*
13 | x | -33%[2.33 µM] | -25%
14 | -13% | 7.9µM* | 50µM*
15 | 22µM* | u | 40µM*
16 | -14% | x | 45µM*

# Next records follow.
no. | compound | miR-21 reporter | Lamin A splicing | ALDH1A1 inh
17 | c1ccc2c(c1)Sc1ccccc1N2C[C@H]1CN2CCC1CC2 | x | x | 12%[13.5 µM]
18 | CC(C)Br | x | x | 10%
19 | CCC1C2CC3C4N(C)c5ccccc5[C@]45CC(C2C5O)N3C1O (stereo partly specified) | x | x | 10%
20 | C/C=C(/C)C(=O)OC1CC[C@]2(C)C3CCC4[C@]5(O)CC(O)[C@]6(O)C(CN7CC(C)CCC7[C@]6(C)O)[C@]5(O)C[C@@]42O[C@]13O (stereo partly specified) | x | -6% | 3%
21 | Cc1ccc(OCCSc2nc3ccc(NC(=O)c4ccc5c(c4)OCO5)cc3s2)cc1 | 0% | u | x
22 | CCOC(=O)c1ccc(-n2c(N)c(C(=O)NCC3CCCO3)sc2=S)cc1 (stereo unspecified) | 1% | u | 4µM*
23 | CCCN(C/C=C\I)[C@@H]1CCc2ccc(O)cc2C1 | x | x | 2%
24 | CN1C(=O)NC(=O)/C(=C\C=C\c2ccccc2[N+](=O)[O-])C1=O | u | u | u

no. | KDM4E inh | G9a block | Sfp inh
17 | x | x | x
18 | x | x | x
19 | 9% | -3%[2.33 µM] | 10%
20 | 1% | x | 2%
21 | x | -5%[59 µM] | x
22 | -2% | 10µM* | 32µM*
23 | 1% | x | 2%
24 | u | 7.9µM* | 18µM*

# Next part
no. | compound | miR-21 reporter | Lamin A splicing | ALDH1A1 inh
25 | O=c1c2ccccc2nc(/C=C\c2ccccc2[N+](=O)[O-])n1-c1ccccc1O | 18% | x | u
26 | COc1ccc(CN2C(=O)CC(=O)NC2=O)cc1 | -2% | 5% | u
27 | O=C1CC(=O)N(Cc2ccccc2)C(=S)N1 | 0% | x | x
28 | Cc1cccc(N2C(=O)/C(=C/c3ccc(CN(CCC#N)S(C)(=O)=O)o3)C(=O)NC2=S)c1 | -1% | -3% | 20µM*
29 | Cc1ccc(N2C(=O)/C(=C/c3ccc(CN(CCC#N)S(C)(=O)=O)o3)C(=O)NC2=S)cc1C | -1% | 8% | 20µM*
30 | CC(=O)C1CCC2C3CCC4CC(C)(O)CCC4(C)C3CCC12C (stereo unspecified) | x | x | x

no. | KDM4E inh | G9a block | Sfp inh
25 | -3% | u | 3%
26 | -2% | -15% | -4%
27 | x | 79µM* | -4%
28 | -21% | u | 13µM*
29 | 0% | 8.9µM* | 22µM*
30 | x | x | 25%

# Exported with values under each structure: part of the list above.
# Below each compound – miR-21 reporter	Lamin A splicing	ALDH1A1 inh	KDM4E inh	G9a block	Sfp inh
(9) CNCCc1c(C)n[nH]c1C
→ -3%	14%	-8%	174%	u	14%
(10) CNCCc1nc(N)n[nH]1
→ -11%	-1%	6%	-2%	56µM*	-9%
(11) CCOC(OCC)P(=O)(O)CCCN
→ x	x	3%	1%	35%[59 µM]	20%
